The target in one assay is GPR84-Gi complex (Homo sapiens, UniProt Q9NQS5). Put plainly: cryo-EM structure, […] Å. The note with it: orthosteric; headgroup ring orientation ambiguous.
For assay [1], the target named is GPR84 (human GPR84, hGPR84) (Homo sapiens, UniProt Q9NQS5). As to the kind of experiment: competition binding kinetics with [3H][…] (koff/kon). The following applies: read-out: affinity calculated from rate constants; pH 7.4; orthosteric; one range printed for all three ligands.
The target of assay [2] is GPR84-Gi2α fusion protein (FLAG-GPR84-Gαi2) (Homo sapiens, UniProt Q9NQS5, F187A). Put plainly: […]GTPγS binding, membranes. The following applies: orthosteric agonist; 30 °C, pH 7.4, 1 µM GDP. A general note: GTPγS is a poorly hydrolysed GTP analogue; its binding reports G protein activation.
Assay [3] has as its target GPR84-Gi2α fusion protein (FLAG-GPR84-Gαi2) (Homo sapiens, UniProt Q9NQS5, L336A). Put plainly: […]GTPγS binding, membranes. The note with it: orthosteric agonist; 30 °C, pH 7.4, 1 µM GDP.
For assay [4], the target named is GPR84-Gi2α fusion protein (FLAG-GPR84-Gαi2) (Homo sapiens, UniProt Q9NQS5, R172A). As to the kind of experiment: […]GTPγS binding, membranes. The note with it: orthosteric agonist; 30 °C, pH 7.4, 1 µM GDP.

Take `[O-][n+]1cc(O)cc(CCCc2ccc(Cl)c(C(F)(F)F)c2)c1`: the “cryo-EM structure, 3.03 Å” value on GPR84-Gi complex is “we determined a cryo-EM structure of the GPR84-Gi complex with OX04529”. The Kd in assay [1] is 1000 to 2000 pM. The EC50 was 100 pM in assay [2], 100 pM in assay [3] and “lacking detectable potency at Arg172^ECL2Ala GPR84” in assay [4].

Usually EC50 stands for the concentration giving half of the maximal effect. The low end stands for an effect from little substance, the high end for a need for much substance.

The values above are taken from article PMC13642346, “Steric control of signaling bias in the immunometabolic receptor GPR84” (2026).
